Target: T1, human liver FBPase (Homo sapiens, UniProt P09467)
T1 sequence (P09467 2-338 limits assumed): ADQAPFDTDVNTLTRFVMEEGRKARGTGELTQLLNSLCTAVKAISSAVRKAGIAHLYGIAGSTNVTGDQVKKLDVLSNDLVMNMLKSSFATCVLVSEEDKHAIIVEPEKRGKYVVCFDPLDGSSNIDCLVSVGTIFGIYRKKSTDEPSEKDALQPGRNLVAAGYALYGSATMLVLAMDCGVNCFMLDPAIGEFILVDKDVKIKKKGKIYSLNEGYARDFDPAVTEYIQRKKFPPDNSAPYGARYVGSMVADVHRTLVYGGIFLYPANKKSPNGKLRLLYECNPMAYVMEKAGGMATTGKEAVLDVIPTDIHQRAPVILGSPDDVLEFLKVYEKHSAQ
Assay: Inhibition of Human Liver FBPase
Details: read-out: Human Liver FBPase IC50; recombinant hlFBPase, 0.150 mM fructose-1,6-bisphosphate, pH 7.4, 37° C.

With “N-(Diethylphosphonomethyl)-2-amino-3-chlorobenzamide [Compound 9.01]” as the substance, how does the IC50 read?
Its IC50 is 60 µM.
